For one compound, fluorescent microtubule phenotype results are on record in patent US20230146870A1, “METHOD TO QUANTIFY AFFINITY AND SELECTIVITY OF SMALL MOLECULES FOR PROTEINS IN LIVING CELLS” (Ohio State Innovation Foundation, priority 2021, published 2023).

In the test the test system is microtubule network of HeLa cells (mScarlet-α-Tubulin). Nature of the test: Confocal microscopy of HeLa cells transfected with mScarlet-α-Tubulin. In kind it is cell-based. The following applies: 1 h at 37° C.

Regarding `COc1cc2c(c(OC)c1OC)-c1ccc(OC)c(=O)cc1[C@@H](NC(C)=O)CC2` [colchicine], the fluorescent microtubule phenotype result is “disrupted the microtubule network”.
